# Results: PubChem BioAssay AID2130 (The Scripps Research Institute Molecular Screening Center, 2009)
# Chains of the proteins cited; added tags and fusions are not shown.
# UniProt Q9Y570, whole entry: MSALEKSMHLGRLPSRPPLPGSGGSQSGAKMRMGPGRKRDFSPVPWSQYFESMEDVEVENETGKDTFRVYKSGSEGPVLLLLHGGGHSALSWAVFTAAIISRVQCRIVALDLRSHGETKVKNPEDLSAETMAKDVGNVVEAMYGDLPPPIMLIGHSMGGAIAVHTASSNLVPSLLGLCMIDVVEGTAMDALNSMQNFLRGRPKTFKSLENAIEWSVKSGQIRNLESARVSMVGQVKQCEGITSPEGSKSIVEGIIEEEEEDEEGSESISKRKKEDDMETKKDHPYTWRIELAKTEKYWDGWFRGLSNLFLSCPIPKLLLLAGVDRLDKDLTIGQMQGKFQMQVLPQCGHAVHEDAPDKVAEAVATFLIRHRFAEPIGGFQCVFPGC
# This is a selection; strong and weak results do not stand in their true shares. Calls of active or inactive are those of the source.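 How the source made its calls: active means inhibition above the campaign mean of all compounds plus 3 SD (cut at about 26% in these data); inactive means the rest.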
# Molecular target: Protein phosphatase methylesterase 1 (Homo sapiens) (UniProt Q9Y570)
# Assay: PME-1 inhibitors via competitive probe labeling, primary screen, biochemical, fluorescence polarization, FP-Rh probe, HTS (AID 2130);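 further: competitive labeling of PME-1 active site by serine hydrolase directed probe; 0% = PME-1 with DMSO and 100% = wells lacking PME-1 enzyme; inhibitors block probe labeling so polarization falls and inhibition rises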
# Conditions: recombinant PME-1, FP-Rh probe fluorescence polarization; at 5.9 µM; stronger effect = higher value
row,Compound,inhibition
1,Cc1cc(C)cc(N(C(=O)c2ccccc2)C2CCN(C(=O)OC(C)(C)C)CC2)c1,inactive: 1.05%
2,O=C(NCC1(N2CCCCC2)CCCCC1)c1ccc(Cl)nc1,inactive: -2.19%
3,O=C(NCC1(N2CCOCC2)CCCCC1)c1cc2ccccc2o1,inactive: -2.11%
4,COc1ccc(Cl)cc1C(=O)NCC1(N2CCOCC2)CCCCC1,inactive: 2.01%
5,N#CC1(Nc2ccccc2)CCN(Cc2ccccc2)CC1,inactive: -4.44%
6,O=C(NCC1(N2CCCCC2)CCCCC1)c1ccc(Cl)s1,inactive: -3.66%
7,O=C(OC1CN2CCC1CC2)C1c2ccccc2Oc2ccccc21 (stereo unspecified),inactive: -7.82%
8,CCOC(=O)N1CCC(Nc2ccc(OC)cc2)CC1,inactive: 2.03%
9,COc1ccc(C(=O)NCC2(N3CCCCC3)CCCCC2)c(OC)c1OC,inactive: 0.4%
10,CC(C)(C)OC(=O)N1CCC(N(C(=O)c2ccccc2)c2ccc(F)cc2)CC1,inactive: -2.87%
11,COc1ccc(C(=O)NCC2(N3CCCCC3)CCCCC2)cc1,inactive: -3.81%
12,O=C(NCC1(N2CCCCC2)CCCCC1)c1cccs1,inactive: 1.06%
13,O=C(NCC1(N2CCCCC2)CCCCC1)c1ccc(=O)[nH]c1,inactive: -0.1%
14,CSc1ccccc1C(=O)NCC1(N2CCCCC2)CCCCC1,inactive: -6.49%
15,Cc1ccc(OCC(C)C)c(CN(CCCl)CCCl)c1,inactive: 6.62%
16,CCOC(=O)N1CCC(Nc2cccc(C)c2)CC1,inactive: 0.18%
17,CCOc1ccc(C)cc1CN(CCCl)CCCl,inactive: 0.53%
18,COc1ccc(NC2CCN(CCc3ccccc3)CC2)c(OC)c1,inactive: 3.08%
19,O=C(NCC1(N2CCCCC2)CCCCC1)c1ccc(F)cc1,inactive: -5%
20,O=C(NCC1(N2CCCCC2)CCCCC1)c1cccc(C(F)(F)F)c1,inactive: -4.45%
21,COc1cc(C(=O)NCC2(N3CCCCC3)CCCCC2)ccc1OC(F)F,inactive: -3.99%

row,Compound,inhibition
1,O=C(NCC1(N2CCOCC2)CCCCC1)c1cc(=O)[nH]c2ccccc12,inactive: -9.96%
2,CN1CCN(CCOC(=O)C(O)(c2ccccc2)c2ccccc2)CC1,inactive: 0.25%
3,COc1ccc(NC2CCN(C(=O)OC(C)(C)C)CC2)cc1,inactive: -14.3%
4,O=C(NCC1(N2CCCCC2)CCCCC1)c1ccc(OC(F)F)cc1,inactive: 1.77%
5,N#CC1(Nc2ccccc2)CCN(CCc2ccccc2)CC1,inactive: 1.88%
6,CCN1CCC(Nc2ccc(Cl)cc2)CC1,inactive: -0.92%
7,O=C(NCC1(N2CCCCC2)CCCCC1)c1cccc([N+](=O)[O-])c1,inactive: 2.87%
8,CN1CCC(Nc2cccc(F)c2)CC1,inactive: 3.1%
9,O=C(NCC1(N2CCCCC2)CCCCC1)c1cncc(Br)c1,inactive: 0.34%
10,CC(C)c1ccc(NC2CCN(C(=O)OC(C)(C)C)CC2)cc1,inactive: 1.87%
11,CN(C)c1cccc(C(=O)NCC2(N3CCCCC3)CCCCC2)c1,inactive: -4.29%
12,COc1ccc(CN(CCCl)CCCl)cc1Cl,inactive: -0.74%
13,COc1cc(OC)c(C(=O)NCC2(N(C)C)CCCCC2)cc1OC,inactive: 1.93%
14,CCOC(=O)N1CCC(Nc2ccc(C)cc2)CC1,inactive: 0.94%
15,N/C(=N\O)c1c(N)no[n+]1[O-],inactive: -6.11%
16,CCc1cc(C(=O)NCC2(N3CCCCC3)CCCCC2)sc1C,inactive: -9.45%
17,O=C(OC1CN2CCC1CC2)C1c2ccccc2C=Cc2ccccc21 (stereo unspecified),inactive: -5.24%
18,O=C(NCC1(N2CCOCC2)CCCCC1)c1cc(Br)ccc1Cl,inactive: 4.57%
19,COc1ccc(C(=O)NCC2(N3CCOCC3)CCCCC2)cc1OC,inactive: 1.1%
20,CN(C)C1(CNC(=O)c2cccc(C#N)c2)CCCCC1,inactive: 0.79%
21,CCCN1CCC(Nc2cc(OC)cc(OC)c2)CC1,inactive: 4.55%

row,Compound,inhibition
1,c1ccc(CN2CCC(Nc3ccccc3)CC2)cc1,inactive: 4.42%
2,N#Cc1ccc(C(=O)NCC2(N3CCCCC3)CCCCC2)cc1,inactive: -3.18%
3,CC(C)(C)OC(=O)N1CCC(N(C(=O)c2ccccc2)c2ccc(Cl)cc2)CC1,inactive: 1.68%
4,CCN1CCC(Nc2cccc(F)c2)CC1,inactive: -2.44%
5,CN(C)c1ccc(C(=O)NCC2(N3CCCCC3)CCCCC2)cc1,inactive: -3.85%
6,O=C(NCC1(N2CCCCC2)CCCCC1)c1ccco1,inactive: -8.15%
7,COc1cc(OC)cc(C(=O)NCC2(N3CCCCC3)CCCCC2)c1,inactive: -3.06%
8,Fc1ccccc1NC1CCN(Cc2ccccc2)CC1,inactive: -2.9%
9,Cc1ccc(C(=O)NCC2(N3CCCCC3)CCCCC2)o1,inactive: -1.69%
10,COc1cc(OC)cc(C(=O)NCC2(N3CCOCC3)CCCCC2)c1,inactive: 0.24%
11,COc1cccc(C(=O)N(c2cc(C)cc(C)c2)C2CCN(C(=O)OC(C)(C)C)CC2)c1,inactive: 4.1%
12,CCC(CO)(C(=O)OC1CN2CCC1CC2)c1ccccc1 (stereo unspecified),inactive: -1.62%
13,CN1CCC(Nc2ccc(Cl)cc2)CC1,inactive: 0.75%
14,CCCOc1ccc(C)cc1CN(CCCl)CCCl,inactive: -0.55%
15,CN1CCC(Nc2ccc(F)c(Cl)c2)CC1,inactive: 4.2%
16,CCOc1ncccc1C(=O)NCC1(N2CCOCC2)CCCCC1,inactive: -1.02%
17,O=C(O)C1(Nc2ccccc2)CCN(Cc2ccccc2)CC1,inactive: -3.22%
18,CC(C)(C)OC(=O)N1CCC(Nc2ccccc2)CC1,inactive: -5.64%
19,CCCOc1ccc(C(=O)NCC2(N(C)C)CCCCC2)cc1,inactive: -1.35%
